Test [1] concerns the target Proto-oncogene tyrosine-protein kinase receptor Ret (Homo sapiens) (UniProt P07949). Briefly: Inhibition of RET (unknown origin) at 10 uM by radiometric assay relative to control.
Test [2] has as its target Macrophage colony-stimulating factor 1 receptor (Homo sapiens) (UniProt P07333). The test can be described thus: Inhibition of CSF1R (unknown origin) at 10 uM by radiometric assay relative to control.
Test [3] concerns the target PI3K p110 beta/p85 alpha (Homo sapiens) (UniProt P27986+P42338). The test can be described thus: Inhibition of PIK3CB/PIK3R1 (unknown origin) at 10 uM by radiometric assay relative to control. The format is protein-complex assay.
In test [4] the target is Platelet-derived growth factor receptor alpha (Homo sapiens) (UniProt P16234). Briefly: Inhibition of PDGFRA (unknown origin) at 10 uM by radiometric assay relative to control.
For test [5], the target named is Hepatocyte growth factor receptor (Homo sapiens) (UniProt P08581). Briefly: Inhibition of MET (unknown origin) at 10 uM by radiometric assay relative to control.
The target of test [6] is Mast/stem cell growth factor receptor Kit (Homo sapiens) (UniProt P10721). The test can be described thus: Inhibition of KIT (unknown origin) at 10 uM by radiometric assay relative to control.
The target in test [7] is T1, Tyrosine-protein kinase receptor UFO (Homo sapiens) (UniProt P30530).
T1 sequence (whole entry): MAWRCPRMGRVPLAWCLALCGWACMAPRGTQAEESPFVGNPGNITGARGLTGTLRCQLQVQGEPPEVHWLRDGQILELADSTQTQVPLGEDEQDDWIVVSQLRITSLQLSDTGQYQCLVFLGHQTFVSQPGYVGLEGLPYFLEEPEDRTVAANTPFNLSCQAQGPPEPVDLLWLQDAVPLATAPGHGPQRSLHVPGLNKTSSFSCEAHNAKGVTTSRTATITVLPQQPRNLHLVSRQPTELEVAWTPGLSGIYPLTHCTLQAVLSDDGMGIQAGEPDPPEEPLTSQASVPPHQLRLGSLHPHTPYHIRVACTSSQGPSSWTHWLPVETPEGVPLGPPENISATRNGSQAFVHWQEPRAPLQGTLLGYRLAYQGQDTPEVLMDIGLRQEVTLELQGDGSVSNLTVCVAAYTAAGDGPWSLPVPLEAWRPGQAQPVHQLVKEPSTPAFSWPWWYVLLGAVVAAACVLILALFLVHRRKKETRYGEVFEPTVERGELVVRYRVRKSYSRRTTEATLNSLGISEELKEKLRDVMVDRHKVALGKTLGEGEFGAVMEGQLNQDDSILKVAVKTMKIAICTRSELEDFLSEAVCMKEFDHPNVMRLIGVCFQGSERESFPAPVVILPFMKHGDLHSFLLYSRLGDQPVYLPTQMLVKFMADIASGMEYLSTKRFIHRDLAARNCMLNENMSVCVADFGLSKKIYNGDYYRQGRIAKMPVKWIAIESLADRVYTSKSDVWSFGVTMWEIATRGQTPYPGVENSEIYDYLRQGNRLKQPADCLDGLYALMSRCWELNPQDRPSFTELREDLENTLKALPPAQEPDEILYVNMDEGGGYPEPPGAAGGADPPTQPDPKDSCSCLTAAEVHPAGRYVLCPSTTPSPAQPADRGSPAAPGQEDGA
Briefly: Inhibition of AXL (unknown origin) at 10 uM by radiometric assay relative to control.

The chains behind the UniProt entries cited, without tags or fusion partners. Where a name states a change or a piece, a line headed by the entry shows the natural chain unless it says otherwise.
UniProt P07333, whole entry: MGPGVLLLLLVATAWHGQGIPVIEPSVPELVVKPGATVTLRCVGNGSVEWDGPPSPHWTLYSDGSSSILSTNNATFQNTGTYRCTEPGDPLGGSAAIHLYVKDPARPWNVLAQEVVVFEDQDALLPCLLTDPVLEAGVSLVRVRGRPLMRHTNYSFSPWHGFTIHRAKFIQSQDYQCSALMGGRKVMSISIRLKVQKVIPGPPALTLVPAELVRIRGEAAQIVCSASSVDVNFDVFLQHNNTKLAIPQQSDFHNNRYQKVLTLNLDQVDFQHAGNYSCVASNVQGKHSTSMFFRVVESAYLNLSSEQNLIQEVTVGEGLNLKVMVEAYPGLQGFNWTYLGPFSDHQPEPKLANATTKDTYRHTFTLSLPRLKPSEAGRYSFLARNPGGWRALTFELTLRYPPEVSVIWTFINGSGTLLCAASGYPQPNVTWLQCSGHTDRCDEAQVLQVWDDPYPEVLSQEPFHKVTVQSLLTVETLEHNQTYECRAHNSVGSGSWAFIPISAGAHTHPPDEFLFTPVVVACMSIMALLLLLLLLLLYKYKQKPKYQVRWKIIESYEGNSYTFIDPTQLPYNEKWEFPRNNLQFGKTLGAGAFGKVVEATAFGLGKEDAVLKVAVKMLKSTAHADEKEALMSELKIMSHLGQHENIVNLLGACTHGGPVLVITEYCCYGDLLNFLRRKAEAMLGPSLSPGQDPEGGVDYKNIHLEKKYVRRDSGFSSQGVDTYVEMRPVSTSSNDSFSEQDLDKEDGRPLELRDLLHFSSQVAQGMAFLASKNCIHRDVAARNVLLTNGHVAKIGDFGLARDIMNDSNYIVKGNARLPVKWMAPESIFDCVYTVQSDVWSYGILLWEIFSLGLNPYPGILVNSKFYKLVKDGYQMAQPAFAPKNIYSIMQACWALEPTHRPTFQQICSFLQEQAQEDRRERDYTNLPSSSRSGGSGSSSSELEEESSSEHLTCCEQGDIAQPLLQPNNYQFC
UniProt P27986, whole entry, looked up: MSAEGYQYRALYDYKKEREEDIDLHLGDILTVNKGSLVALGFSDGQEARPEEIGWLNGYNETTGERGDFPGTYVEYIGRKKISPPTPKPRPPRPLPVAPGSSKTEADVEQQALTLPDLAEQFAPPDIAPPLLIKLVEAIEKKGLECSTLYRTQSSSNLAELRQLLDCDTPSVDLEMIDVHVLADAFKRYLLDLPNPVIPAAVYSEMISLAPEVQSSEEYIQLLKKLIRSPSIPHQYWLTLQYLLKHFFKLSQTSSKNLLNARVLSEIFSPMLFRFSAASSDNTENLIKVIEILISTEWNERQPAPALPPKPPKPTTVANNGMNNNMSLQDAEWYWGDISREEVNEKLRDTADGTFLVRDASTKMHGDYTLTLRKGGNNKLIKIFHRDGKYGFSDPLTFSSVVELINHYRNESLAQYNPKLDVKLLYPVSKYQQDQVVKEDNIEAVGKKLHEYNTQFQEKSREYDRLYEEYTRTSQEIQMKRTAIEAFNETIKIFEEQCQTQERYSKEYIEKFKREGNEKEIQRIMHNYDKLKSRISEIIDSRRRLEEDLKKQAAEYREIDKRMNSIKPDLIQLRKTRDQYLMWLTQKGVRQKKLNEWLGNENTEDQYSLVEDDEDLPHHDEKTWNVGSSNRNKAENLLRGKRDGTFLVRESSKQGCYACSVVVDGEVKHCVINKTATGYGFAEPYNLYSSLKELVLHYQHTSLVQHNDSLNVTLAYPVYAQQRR
UniProt P16234: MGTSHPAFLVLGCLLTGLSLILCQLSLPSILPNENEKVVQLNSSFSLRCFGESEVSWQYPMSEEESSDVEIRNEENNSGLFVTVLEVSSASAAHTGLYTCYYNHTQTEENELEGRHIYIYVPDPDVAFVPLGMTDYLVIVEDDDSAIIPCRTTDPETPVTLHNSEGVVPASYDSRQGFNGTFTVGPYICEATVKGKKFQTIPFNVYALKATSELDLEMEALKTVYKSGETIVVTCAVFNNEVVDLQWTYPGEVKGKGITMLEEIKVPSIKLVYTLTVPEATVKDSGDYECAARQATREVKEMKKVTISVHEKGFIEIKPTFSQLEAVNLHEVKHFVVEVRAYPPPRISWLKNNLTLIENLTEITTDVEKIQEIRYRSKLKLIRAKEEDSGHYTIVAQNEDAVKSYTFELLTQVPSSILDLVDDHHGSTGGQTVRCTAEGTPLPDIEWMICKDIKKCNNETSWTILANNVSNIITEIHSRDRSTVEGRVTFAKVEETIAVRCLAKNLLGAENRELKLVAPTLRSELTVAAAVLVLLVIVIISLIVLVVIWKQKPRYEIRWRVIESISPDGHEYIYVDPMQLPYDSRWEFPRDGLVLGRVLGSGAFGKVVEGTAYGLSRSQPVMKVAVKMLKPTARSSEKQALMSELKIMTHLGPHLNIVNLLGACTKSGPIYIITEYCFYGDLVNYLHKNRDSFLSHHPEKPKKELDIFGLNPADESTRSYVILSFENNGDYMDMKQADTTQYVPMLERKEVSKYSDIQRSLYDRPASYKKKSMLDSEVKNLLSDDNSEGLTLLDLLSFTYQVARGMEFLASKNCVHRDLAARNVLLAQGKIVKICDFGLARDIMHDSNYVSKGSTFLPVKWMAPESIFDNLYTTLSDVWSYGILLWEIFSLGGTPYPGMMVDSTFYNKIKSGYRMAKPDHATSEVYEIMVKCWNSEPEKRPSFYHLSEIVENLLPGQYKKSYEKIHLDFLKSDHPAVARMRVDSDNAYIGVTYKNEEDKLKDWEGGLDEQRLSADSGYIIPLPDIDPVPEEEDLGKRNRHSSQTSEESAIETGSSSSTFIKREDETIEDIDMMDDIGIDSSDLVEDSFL
UniProt P10721, whole entry: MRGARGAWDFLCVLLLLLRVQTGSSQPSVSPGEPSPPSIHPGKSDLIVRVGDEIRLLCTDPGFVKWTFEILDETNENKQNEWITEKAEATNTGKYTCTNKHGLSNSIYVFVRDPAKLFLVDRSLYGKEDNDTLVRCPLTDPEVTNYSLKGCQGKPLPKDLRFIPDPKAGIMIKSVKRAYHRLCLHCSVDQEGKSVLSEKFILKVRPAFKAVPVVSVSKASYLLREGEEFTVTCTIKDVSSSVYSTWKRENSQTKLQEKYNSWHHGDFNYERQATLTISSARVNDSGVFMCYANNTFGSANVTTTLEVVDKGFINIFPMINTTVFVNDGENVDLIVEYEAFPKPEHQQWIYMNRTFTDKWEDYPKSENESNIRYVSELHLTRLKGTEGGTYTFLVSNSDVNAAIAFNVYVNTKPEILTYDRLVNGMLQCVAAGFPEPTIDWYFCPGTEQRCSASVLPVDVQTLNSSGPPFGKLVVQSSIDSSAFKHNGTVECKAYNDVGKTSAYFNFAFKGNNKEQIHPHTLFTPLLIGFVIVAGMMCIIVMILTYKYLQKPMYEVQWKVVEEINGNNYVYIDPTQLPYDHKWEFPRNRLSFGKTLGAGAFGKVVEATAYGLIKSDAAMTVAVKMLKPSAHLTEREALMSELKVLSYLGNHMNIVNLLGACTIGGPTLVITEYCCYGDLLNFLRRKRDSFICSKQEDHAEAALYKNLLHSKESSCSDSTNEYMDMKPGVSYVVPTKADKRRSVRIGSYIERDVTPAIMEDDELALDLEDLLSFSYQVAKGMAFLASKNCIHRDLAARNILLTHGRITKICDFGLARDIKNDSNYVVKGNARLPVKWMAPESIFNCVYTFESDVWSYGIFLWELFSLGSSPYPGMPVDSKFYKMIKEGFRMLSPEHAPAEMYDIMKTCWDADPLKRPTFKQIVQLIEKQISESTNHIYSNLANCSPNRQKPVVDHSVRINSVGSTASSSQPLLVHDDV
UniProt P28482, whole entry: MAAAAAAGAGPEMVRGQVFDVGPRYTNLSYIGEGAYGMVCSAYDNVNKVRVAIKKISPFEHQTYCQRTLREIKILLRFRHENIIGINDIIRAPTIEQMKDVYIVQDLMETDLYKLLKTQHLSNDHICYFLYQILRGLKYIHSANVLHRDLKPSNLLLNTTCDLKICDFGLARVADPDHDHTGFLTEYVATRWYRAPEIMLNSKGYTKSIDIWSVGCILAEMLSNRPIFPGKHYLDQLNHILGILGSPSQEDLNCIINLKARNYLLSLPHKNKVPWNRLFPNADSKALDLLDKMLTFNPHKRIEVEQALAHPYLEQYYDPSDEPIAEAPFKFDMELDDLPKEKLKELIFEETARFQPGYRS
UniProt P31749: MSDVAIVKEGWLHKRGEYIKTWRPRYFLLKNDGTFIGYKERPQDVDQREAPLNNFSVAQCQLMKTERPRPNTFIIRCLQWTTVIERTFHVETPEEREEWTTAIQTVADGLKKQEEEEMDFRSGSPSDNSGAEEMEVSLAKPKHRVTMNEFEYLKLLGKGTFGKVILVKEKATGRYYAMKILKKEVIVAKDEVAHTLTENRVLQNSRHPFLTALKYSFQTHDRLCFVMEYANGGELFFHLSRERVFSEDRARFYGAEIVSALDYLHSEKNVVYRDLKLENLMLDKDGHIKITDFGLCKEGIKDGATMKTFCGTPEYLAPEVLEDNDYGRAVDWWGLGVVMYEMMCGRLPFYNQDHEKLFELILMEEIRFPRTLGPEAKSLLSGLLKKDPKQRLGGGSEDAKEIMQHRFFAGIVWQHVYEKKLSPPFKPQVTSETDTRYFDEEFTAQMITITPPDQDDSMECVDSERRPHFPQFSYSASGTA
UniProt Q9UM73: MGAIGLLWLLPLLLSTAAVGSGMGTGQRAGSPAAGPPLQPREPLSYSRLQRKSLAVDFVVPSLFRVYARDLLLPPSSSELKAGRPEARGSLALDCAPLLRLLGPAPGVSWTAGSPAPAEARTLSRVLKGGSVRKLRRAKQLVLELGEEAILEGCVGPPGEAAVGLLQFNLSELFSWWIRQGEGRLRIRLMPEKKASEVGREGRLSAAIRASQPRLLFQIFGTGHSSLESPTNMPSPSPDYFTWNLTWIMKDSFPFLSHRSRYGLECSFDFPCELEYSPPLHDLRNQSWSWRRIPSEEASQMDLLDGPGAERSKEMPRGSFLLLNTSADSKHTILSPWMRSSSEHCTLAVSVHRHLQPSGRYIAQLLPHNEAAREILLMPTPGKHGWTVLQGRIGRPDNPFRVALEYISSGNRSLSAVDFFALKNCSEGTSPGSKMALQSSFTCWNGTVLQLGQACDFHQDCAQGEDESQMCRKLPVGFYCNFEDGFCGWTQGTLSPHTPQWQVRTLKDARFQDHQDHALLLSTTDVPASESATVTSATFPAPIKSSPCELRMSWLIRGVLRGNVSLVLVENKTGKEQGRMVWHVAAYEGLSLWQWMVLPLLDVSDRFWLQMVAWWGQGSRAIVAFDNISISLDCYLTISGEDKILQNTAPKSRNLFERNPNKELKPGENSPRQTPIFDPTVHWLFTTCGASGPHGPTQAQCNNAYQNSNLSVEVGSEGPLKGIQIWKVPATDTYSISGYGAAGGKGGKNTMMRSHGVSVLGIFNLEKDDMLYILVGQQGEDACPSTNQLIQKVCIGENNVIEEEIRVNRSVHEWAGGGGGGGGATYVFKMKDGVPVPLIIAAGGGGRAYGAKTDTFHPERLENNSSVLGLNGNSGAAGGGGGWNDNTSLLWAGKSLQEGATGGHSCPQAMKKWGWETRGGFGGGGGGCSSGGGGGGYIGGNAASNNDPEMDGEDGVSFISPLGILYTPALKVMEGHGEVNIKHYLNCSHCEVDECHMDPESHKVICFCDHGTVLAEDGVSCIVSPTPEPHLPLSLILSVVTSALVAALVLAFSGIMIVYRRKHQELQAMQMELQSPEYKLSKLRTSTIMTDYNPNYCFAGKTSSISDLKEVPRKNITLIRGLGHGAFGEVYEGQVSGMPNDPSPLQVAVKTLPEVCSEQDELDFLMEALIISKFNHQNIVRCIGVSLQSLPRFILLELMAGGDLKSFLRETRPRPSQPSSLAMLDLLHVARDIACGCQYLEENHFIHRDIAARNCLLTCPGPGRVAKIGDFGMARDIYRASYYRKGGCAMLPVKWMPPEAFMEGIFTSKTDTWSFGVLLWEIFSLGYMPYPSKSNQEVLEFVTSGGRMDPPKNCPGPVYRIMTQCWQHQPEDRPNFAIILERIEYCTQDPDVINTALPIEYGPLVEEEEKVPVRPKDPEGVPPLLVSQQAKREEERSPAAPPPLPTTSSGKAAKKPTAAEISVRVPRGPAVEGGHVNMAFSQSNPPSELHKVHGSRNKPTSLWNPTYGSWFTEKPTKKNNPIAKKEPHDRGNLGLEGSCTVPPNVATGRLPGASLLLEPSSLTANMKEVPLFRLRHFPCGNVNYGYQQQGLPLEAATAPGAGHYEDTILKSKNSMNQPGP

Test [8] concerns the target Serine/threonine-protein kinase mTOR (Homo sapiens) (UniProt P42345). Briefly: Inhibition of MTOR (unknown origin) at 10 uM by radiometric assay relative to control.
Test [9] addresses Platelet-derived growth factor receptor beta (Homo sapiens) (UniProt P09619). The test can be described thus: Inhibition of PDGFRB (unknown origin) at 10 uM by radiometric assay relative to control.
Test [10] concerns the target RAC-gamma serine/threonine-protein kinase (Homo sapiens) (UniProt Q9Y243). The test can be described thus: Inhibition of AKT3 (unknown origin) at 10 uM by radiometric assay relative to control.
Test [11] concerns the target Vascular endothelial growth factor receptor 2 (Homo sapiens) (UniProt P35968). The test can be described thus: Inhibition of KDR (unknown origin) at 10 uM by radiometric assay relative to control.
Test [12] has as its target Vascular endothelial growth factor receptor 1 (Homo sapiens) (UniProt P17948). The test can be described thus: Inhibition of FLT1 (unknown origin) at 10 uM by radiometric assay relative to control.
In test [13] the target is Receptor-type tyrosine-protein kinase FLT3 (Homo sapiens) (UniProt P36888). The test can be described thus: Inhibition of human FLT3 at 10 uM by radiometric assay relative to control.
The test system of test [14] is Receptor-type tyrosine-protein kinase FLT3 (Homo sapiens), P36888 [D835Y]. Briefly: Inhibition of human FLT3 D835Y mutant at 25 uM by radiometric assay relative to control.
Test [15] has as its target Mitogen-activated protein kinase 1 (Homo sapiens) (UniProt P28482). The test can be described thus: Inhibition of MAPK1 (unknown origin) at 10 uM by radiometric assay relative to control.
The target of test [16] is Receptor-type tyrosine-protein kinase FLT3 (Homo sapiens) (UniProt P36888). Briefly: Inhibition of human FLT3 at 25 uM by radiometric assay relative to control.
Test [17] relates to Receptor-type tyrosine-protein kinase FLT3 (Homo sapiens), P36888 [D835Y]. Briefly: Inhibition of human FLT3 D835Y mutant at 10 uM by radiometric assay relative to control.
Test [18] addresses RAC-alpha serine/threonine-protein kinase (Homo sapiens) (UniProt P31749). The test can be described thus: Inhibition of AKT1 (unknown origin) at 10 uM by radiometric assay relative to control.
Test [19] deals with T2, Macrophage-stimulating protein receptor (Homo sapiens) (UniProt Q04912).
T2 sequence (whole entry): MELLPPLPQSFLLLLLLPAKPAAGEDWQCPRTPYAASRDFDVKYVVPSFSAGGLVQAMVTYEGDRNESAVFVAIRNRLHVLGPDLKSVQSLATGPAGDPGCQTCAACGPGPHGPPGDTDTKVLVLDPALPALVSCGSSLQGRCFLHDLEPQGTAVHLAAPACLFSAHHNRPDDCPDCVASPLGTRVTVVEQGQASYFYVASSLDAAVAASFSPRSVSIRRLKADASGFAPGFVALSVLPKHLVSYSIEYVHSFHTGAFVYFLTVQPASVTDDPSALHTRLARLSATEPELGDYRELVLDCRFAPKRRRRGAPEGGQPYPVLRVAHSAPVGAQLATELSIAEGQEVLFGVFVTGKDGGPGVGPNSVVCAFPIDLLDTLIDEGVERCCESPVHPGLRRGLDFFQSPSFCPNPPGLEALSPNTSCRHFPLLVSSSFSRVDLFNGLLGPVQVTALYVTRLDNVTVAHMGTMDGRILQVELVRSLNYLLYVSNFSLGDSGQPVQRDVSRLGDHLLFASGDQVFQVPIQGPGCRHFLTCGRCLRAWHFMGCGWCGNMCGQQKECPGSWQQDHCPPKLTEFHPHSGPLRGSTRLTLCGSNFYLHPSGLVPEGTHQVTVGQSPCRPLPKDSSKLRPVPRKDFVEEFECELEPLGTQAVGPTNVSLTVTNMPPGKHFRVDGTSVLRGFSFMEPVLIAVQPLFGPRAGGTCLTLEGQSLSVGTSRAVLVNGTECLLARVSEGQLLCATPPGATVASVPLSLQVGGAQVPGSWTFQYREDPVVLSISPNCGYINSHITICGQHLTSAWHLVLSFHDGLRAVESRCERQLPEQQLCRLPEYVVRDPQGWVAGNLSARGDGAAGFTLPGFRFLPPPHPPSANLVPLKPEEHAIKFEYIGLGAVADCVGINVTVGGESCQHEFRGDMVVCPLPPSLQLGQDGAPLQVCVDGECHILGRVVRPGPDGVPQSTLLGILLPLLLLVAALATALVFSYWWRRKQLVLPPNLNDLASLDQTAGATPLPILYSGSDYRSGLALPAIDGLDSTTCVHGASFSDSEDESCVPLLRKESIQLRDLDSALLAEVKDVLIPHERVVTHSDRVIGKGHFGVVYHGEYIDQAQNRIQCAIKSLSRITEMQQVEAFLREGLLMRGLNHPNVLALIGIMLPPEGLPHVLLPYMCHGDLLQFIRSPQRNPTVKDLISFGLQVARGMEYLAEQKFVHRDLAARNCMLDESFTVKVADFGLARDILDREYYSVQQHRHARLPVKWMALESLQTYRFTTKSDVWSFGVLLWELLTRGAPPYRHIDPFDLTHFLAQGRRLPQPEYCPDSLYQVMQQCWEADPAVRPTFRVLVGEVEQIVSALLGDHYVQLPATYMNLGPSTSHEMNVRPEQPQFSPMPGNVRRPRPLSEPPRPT
The test can be described thus: Inhibition of MST1R (unknown origin) at 10 uM by radiometric assay relative to control.

The target of test [20] is Epidermal growth factor receptor (Homo sapiens) (UniProt P00533). The test can be described thus: Inhibition of EGFR (unknown origin) at 10 uM by radiometric assay relative to control.
In test [21] the target is ALK tyrosine kinase receptor (Homo sapiens) (UniProt Q9UM73). The test can be described thus: Inhibition of ALK (unknown origin) at 10 uM by radiometric assay relative to control.
In test [22] the target is Dual specificity mitogen-activated protein kinase kinase 1 (Homo sapiens) (UniProt Q02750). The test can be described thus: Inhibition of MAP2K1 (unknown origin) at 10 uM by radiometric assay relative to control.

Take `O=C1NC2(Nc3c(Br)cc(Br)cc31)C(=O)N(Cc1ccccc1)c1ccccc12` (centres undefined): the inhibition is -9% in [1]; -10% in test [2]; 3% in test [3]; -2% in [4]; 38% in [5]; 6% in test [6]. Further, the inhibition in [7] is -1%; in test [8] it was -3%; in test [9], 21%; in [10], 26%; in [11] it was 11%.

With `Cc1ccc(CN2C(=O)C3(NC(=O)c4cc(Br)cc(Br)c4N3)c3ccccc32)cc1` (centres undefined), the inhibition in test [1] was 6%; in test [12], -7%; in test [2], -9%; in test [13], 51%; in test [14] it was 62%; in test [4], 11%. The inhibition in test [5] was 3%; in test [15] it was 3%; in [16], 55%; in test [6] it was -5%; in test [7], 9%; in [17], 23%. Further, the inhibition in test [9] was 23%; in [18], 17%; in test [19], -6%; in [20] it was 5%; in test [11], 15%.

On to `O=C1NC2(Nc3c(Br)cc(Br)cc31)C(=O)N(Cc1ccc(Br)cc1)c1ccccc12` (centres undefined), for which the inhibition in [1] was 0%; in test [21], 3%; in test [13], 17%; in test [14], 5%; in test [22], -6%; in test [5], 14%. Besides, the inhibition in test [16] was 15%; in test [17], -7%; in test [9], 12%; in test [19], -8%; in test [11], 7%.

These data come from ChEMBL document CHEMBL5325463, “Novel spiroindoline quinazolinedione derivatives as anticancer agents and potential FLT3 kinase inhibitors” (Bioorg Med Chem, 2023).
